Data on one substance can be found in patent publication US20220339416A1, “SILK FIBROIN-BASED MICRONEEDLES AND USES THEREOF” (VAXESS TECHNOLOGIES, INC., priority 2019, published 2022).

The assay deals with B16-F10 mouse melanoma tumor. Description: Daily vs single bolus intratumoral administration in B16-F10 mouse melanoma tumor model. Format: in vivo. Conditions: anti-PD1 mAb 100 ug i.p. Day 4 and 9. From the text:
Mouse melanoma cells (B16-F10) are to be injected into the flank (right side) of mice (C57Bl/6) and a tumor is to be allowed to form. The agent will be administered intratumorally or peritumorally (i.e., intradermally or subcutaneously) either as: • 1. a single bolus, • 2. a series of fractional injections where the total dose given over the time frame is equivalent to the single bolus. These injections may be given daily or every other day. • 3. a silk microneedle patch formulated with the one or more therapeutic agents. The therapeutic agents to be investigated (i.e., as single agents and in combination) in these experiments may include, but are not limited to: • Anti-cancer agents, such as: • Chemotherapeutic agents: Gemcitabine, Doxorubicin, Oxaliplatin, Dacarbazine, Temozolomide • Targeted therapies: Vemurafenib, Dabrafenib, Trametinib • Other: mRNA encoding for anti-cancer agents • Immunomodulatory agents, such as: • Cytokines: IL-2, IL-12, IL-15, GM-CSF • Immunomodulatory agents: CpG, c-di-GMP • Checkpoint inhibitors: anti-PD1, anti-PD-L1, anti-CTLA4 • Other: mRNA encoding for cytokines and other immunomodulatory molecules
Tumor growth will be measured two to three times weekly. Animals will be euthanized when humane endpoints have been reached. […]

As for “IL-2: cytokine interleukin 2, given intratumorally or dried in silk films”, the “survival (Kaplan-Meier curve)” value (daily intratumoral doses (Days 7-11 and 21-25) compared to single bolus doses (Day 7 and 21)) is on record as “better survival”. The “tumor burden, as determined by tumor volume over time” value (daily intratumoral doses (Days 7-11 and 21-25, each 1/5 of bolus) compared to single bolus doses (Day 7 and 21)) was “lower tumor burden”.
